Values quoted from earlier work in paper PMC13010972 (Chemical communications (Cambridge, England), 2026).

Tested on: polymyxin-resistant S. enterica strain EG9492
Conditions: cited from earlier work

**Q.** For Nc1nc2ccc(OC(F)(F)F)cc2s1 [R-1, riluzole], which “re-sensitization of polymyxin-resistant strain to polymyxins” value is on record?
**A.** re-sensitizes a polymyxin-resistant strain to polymyxins
